Measured values published in ChEMBL document CHEMBL5537208, “Discovery of Nivasorexant (ACT-539313): The First Selective Orexin-1 Receptor Antagonist (SO1RA) Investigated in Clinical Trials” (J Med Chem, 2024).

Sequences of proteins named here, by UniProt entry; tags and fusion partners are left off.
UniProt P56718, whole entry: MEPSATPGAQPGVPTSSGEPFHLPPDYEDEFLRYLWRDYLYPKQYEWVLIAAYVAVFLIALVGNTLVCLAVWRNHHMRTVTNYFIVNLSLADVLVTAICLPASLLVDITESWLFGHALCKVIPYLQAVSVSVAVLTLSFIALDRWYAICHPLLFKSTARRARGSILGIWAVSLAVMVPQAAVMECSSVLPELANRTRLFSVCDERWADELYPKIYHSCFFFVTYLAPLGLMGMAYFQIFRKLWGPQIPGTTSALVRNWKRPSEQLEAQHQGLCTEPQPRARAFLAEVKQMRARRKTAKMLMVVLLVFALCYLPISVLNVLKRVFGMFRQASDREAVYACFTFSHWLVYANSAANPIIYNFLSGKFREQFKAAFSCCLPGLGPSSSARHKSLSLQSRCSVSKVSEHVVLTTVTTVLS
UniProt O43614, whole entry: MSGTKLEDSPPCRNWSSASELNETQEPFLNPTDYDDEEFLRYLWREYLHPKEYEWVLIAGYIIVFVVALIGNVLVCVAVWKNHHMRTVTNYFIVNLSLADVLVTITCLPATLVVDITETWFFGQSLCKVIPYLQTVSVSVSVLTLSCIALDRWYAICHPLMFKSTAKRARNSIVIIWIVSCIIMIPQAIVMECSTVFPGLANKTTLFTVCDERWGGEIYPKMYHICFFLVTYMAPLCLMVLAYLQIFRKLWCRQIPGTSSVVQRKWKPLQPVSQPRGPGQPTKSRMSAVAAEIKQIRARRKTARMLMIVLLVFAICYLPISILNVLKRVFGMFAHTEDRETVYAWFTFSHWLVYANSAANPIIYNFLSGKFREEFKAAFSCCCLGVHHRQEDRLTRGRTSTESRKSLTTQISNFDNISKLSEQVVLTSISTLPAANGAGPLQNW
UniProt P56719, whole entry: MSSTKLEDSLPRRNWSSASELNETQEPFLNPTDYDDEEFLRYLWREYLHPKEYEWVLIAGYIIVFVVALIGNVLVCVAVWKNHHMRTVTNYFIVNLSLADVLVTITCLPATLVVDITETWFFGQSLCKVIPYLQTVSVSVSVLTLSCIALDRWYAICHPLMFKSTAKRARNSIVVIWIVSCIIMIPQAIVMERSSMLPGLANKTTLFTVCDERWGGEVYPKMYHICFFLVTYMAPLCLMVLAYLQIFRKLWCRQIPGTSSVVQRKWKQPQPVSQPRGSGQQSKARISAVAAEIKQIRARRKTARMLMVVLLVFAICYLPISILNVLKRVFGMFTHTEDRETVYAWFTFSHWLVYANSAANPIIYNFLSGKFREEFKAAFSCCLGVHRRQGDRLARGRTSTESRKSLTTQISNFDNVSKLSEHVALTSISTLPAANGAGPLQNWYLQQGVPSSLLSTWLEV

How the values were obtained:
Assay type in all cases: cell-based
[1] = organism: Homo sapiens
[2] = target: Orexin/Hypocretin receptor type 1 (Rattus norvegicus) (UniProt P56718); conditions: CHO, filed as antagonist, time 120.0 min
[3] = target: Orexin receptor type 2 (Homo sapiens, UniProt O43614); conditions: CHO, filed as antagonist, time 120.0 min
[4] = target: Orexin receptor type 2 (Rattus norvegicus) (UniProt P56719); conditions: CHO, filed as antagonist, time 120.0 min

| Kb [2] [nM] | Kb [3] [nM] | Kb [4] [nM] | SMILES | Ratio [1] |
| --- | --- | --- | --- | --- |
| 0.7 | – | – | Cc1ccc(C(=O)N2CCOC[C@H]2Cc2cccc(-n3nccn3)c2)c(-n2nccn2)c1 [NIVASOREXANT] | 61 |
| 0.7 | 71 | 68 | Cc1ccc(C(=O)N2CCOC[C@H]2Cc2cc(-n3nccn3)ccc2F)c(-n2nccn2)c1 | – |
